Measured values as given in article PMC3586182 (Clinical Drug Investigation, 2012).

Conditions: healthy volunteers, 5 mg/kg 4-h IV infusion, either formulation

Substance: ciclosporin
- Changes in laboratory values or ECG-findings: no clinically significant or consistent changes
